How the values were obtained:
hCA IX = molecular target: T1, hCA IX (Homo sapiens, UniProt Q16790); test: stopped-flow CO2 hydrase assay, hCA IX; assay type: biochemical
T1 construct: made in house

Chains of the proteins cited; added tags and fusions are not shown. Residues count along the entry.
UniProt O43570, 25-354: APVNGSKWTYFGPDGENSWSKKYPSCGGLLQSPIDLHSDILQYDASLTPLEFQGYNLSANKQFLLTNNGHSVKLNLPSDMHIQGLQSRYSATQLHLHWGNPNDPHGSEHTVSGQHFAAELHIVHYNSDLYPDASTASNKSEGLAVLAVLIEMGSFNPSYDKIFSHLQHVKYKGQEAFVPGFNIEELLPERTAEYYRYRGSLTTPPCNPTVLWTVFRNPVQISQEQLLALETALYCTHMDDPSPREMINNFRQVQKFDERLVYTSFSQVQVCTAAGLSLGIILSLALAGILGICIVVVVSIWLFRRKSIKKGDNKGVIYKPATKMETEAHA

hCA XII = molecular target: T2, hCA XII (Homo sapiens, UniProt O43570); test: stopped-flow CO2 hydrase assay, hCA XII; assay type: biochemical
T2 construct: made in house

O=C(O)c1ccc(Sc2nnc(Sc3ccc(C(=O)O)cc3[N+](=O)[O-])s2)c([N+](=O)[O-])c1 [Compound 8]
Selectivity Index hCA II/hCA IX (hCA IX): 30.4 | Selectivity Index hCA II/hCA XII (hCA XII): 0.9

CC(=O)Nc1cccc(Nc2c([N+](=O)[O-])cc(C(=O)O)cc2[N+](=O)[O-])c1 [Compound 12]
Selectivity Index hCA II/hCA XII (hCA XII): >544.1

From paper PMC5943959, “Potent and Selective Carboxylic Acid Inhibitors of Tumor-Associated Carbonic Anhydrases IX and XII” (Molecules : A Journal of Synthetic Chemistry and Natural …, 2017)
